This assay concerns the target T1, hBuChE from human serum (Homo sapiens, UniProt P06276).
T1 construct: purchased Sigma B4186; host or cells: human serum (per result head)
As to the kind of experiment: hBuChE inhibition assay. The following applies: mean ± SEM. The assay is classed as biochemical.

Chains of the proteins cited; added tags and fusions are not shown. Residues count along the entry.
UniProt P06276, 29-602: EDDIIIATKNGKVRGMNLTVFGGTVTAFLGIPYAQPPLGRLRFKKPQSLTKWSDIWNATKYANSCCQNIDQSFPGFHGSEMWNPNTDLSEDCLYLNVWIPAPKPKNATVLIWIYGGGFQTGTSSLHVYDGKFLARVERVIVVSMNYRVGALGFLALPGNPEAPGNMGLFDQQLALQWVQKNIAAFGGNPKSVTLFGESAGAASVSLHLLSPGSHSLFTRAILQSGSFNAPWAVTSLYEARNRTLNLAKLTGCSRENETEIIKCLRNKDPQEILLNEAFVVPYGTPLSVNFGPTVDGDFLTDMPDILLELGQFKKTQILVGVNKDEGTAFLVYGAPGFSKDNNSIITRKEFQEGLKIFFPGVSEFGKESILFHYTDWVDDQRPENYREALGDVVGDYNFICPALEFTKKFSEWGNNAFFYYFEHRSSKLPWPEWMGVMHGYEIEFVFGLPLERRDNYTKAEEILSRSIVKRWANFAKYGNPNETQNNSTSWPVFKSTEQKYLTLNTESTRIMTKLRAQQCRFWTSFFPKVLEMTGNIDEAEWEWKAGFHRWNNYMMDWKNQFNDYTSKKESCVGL

Here are results for one molecule from article PMC9448382, “Fluorosulfate-containing pyrazole heterocycles as selective BuChE inhibitors: structure-activity relationship and biological evaluation for the treatment of Alzheimer’s disease” (Journal of Enzyme Inhibition and Medicinal Chemistry, 2022).

In the case of `CCN(C)C(=O)Oc1cccc([C@H](C)N(C)C)c1` [Rivastigmine, reference compound], 7.77 ± 2.92 µM corresponded to half-maximal inhibition (IC50).
